{"source": "patent US20090105220A1", "about": "“PROCESS FOR THE PREPARATION OF NONPEPTIDE SUBSTITUTED SPIROBENZOAZEPINE DERIVATIVES” (priority 2003, published 2009)", "assay": "Solubility in water", "details": "isolated crystalline salt"}
{"substance": "(4R)-1-[4-(2-chloro-5-fluorobenzoyl)amino-3-methoxybenzoyl]-1,2,3,5-tetrahydro-spiro[4H-1-benzazepine-4,1′-[2]cyclopentene]-3′-carboxylic Acid Diethylamine Salt [Example 26]", "values": [{"measurement": "Solubility in water", "result": "> 10000", "unit": "µg/mL"}]}
